This passage reports Ki results from ChEMBL document CHEMBL5725924, “Substituted benzimidazole-type piperidine compounds and uses thereof” (2017).

The experiment addresses Mu-type opioid receptor (Homo sapiens, UniProt P35372). The experiment is described as follows: In Vitro Kappa-Opioid Receptor Binding Assay: κ-Opioid Receptor Binding Assay Procedures: Membranes from recombinant HEK-293 cells expressing the human kappa opioid receptor (kappa) (cloned in house) were prepared by lysing cells in ice cold hypotonic buffer (2.5 mM MgCl2, 50 mM HEPES, pH 7.4) (10 mL/10 cm dish) followed by homogenization with a tissue grinder/Teflon pestle. Membranes were collect.

The Ki is the dissociation constant of the complex between target and ligand, obtained from inhibition or displacement. Regarding `O=C(O)CN1CCCC[C@@H]1c1nc2ccccc2n1[C@H]1C[C@H]2CCC[C@@H](C1)N2[C@@H]1C[C@@H]2CCCC[C@@H](C2)C1`, the inhibition constant Ki turned out to be 11 nM.
